Experimental data reported in patent publication US10548982B2, “Reversible covalent linkage of functional molecules” (priority 2009, dated 2020).

Conditions: glutathione 1 mM (5 μL of 20 mM), 37° C., 4 h, 20 mM HEPES pH 7.4

Q: With “GrB2-SH2 Domain L111C/Dibromomaleimide/Glutathione Adduct” as the substance, how does the “cleavage of adduct regenerating Grb2-SH2 (L111C)” value read?
A: Its value is “quantitative conversion”.
